# Antibody variant affinities, Ab-14 heavy chain, assay 1

Reference: Engelhart et al. 2022, doi:10.1038/s41597-022-01779-4. File: FLAb, binding data.

All variants were tested on one target, the spike HR2 peptide PDVDLGDISGINAS (SARS-CoV-2).

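The starting antibody came from a phage panning campaign against this peptide. Variants in AAYL49 differ from the parent at up to three CDR positions; double and triple changes were sampled at random. AlphaSeq pools MATa yeast showing the antibodies with MATalpha yeast showing the peptide. The frequency of each diploid, read from paired DNA barcodes, reflects how well the two displayed proteins bind. The ratio of observed to expected reads was calibrated, replicate by replicate, on BCL2-family standards whose Kd was known from biolayer interferometry. The assay was run in three technical replicates.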

Parent scFv Ab-14: VH joined to VL by the linker GGGGSGGGGSGGGGS. Changes lie in the heavy chain CDRs alone.
VH: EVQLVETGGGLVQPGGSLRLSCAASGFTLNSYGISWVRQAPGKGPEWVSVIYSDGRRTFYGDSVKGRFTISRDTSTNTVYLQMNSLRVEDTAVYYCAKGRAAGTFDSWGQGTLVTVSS
VL: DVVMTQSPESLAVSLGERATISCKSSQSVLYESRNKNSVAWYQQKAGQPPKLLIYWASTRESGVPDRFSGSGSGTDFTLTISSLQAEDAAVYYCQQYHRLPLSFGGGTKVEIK

Variants are written as CDR1, CDR2 and CDR3 of the heavy chain (limits as in the source). Parent: GFTLNSYGIS, VIYSDGRRTFYGDSVK, GRAAGTFDS. Affinities are written as log10 Kd with Kd in nM; a lower number is a better binder. Replicates are averaged; those with no signal do not enter the mean. "nd" means that the variant was in the library but no mating with the target was seen in any replicate; the authors take this as a sign of poor binding, and no number exists.

{"CDR-H1": "GFTLNEYGIS", "CDR-H2": "VIYSDGRRRFYGDSVQ", "CDR-H3": "GRAAGTFDS", "mean, log10 nM": "nd", "seen in": "0 of 3"}
{"CDR-H1": "GFTLNSYGIS", "CDR-H2": "VIYSDGRSTFYGDSKK", "CDR-H3": "GRAQGTFDS", "mean, log10 nM": "4.21", "seen in": "1 of 3"}
{"CDR-H1": "GRTHNSYGIS", "CDR-H2": "VIYSDGRRTFYGDSVK", "CDR-H3": "GRAAGTTDS", "mean, log10 nM": "4.21", "seen in": "2 of 3"}
{"CDR-H1": "GFALNSFYIS", "CDR-H2": "VIYSDGRRTFYGDSVK", "CDR-H3": "GRAAGTFDS", "mean, log10 nM": "nd", "seen in": "0 of 3"}
{"CDR-H1": "GFTLNYYGIS", "CDR-H2": "VIYSDGRRTFYGDSVK", "CDR-H3": "GCAAGTFDS", "mean, log10 nM": "5.01", "seen in": "3 of 3"}
{"CDR-H1": "GFTLFSYGIS", "CDR-H2": "VIYSDVRRTFYGDSVK", "CDR-H3": "GRAAGTFDL", "mean, log10 nM": "nd", "seen in": "0 of 3"}
{"CDR-H1": "GFTLNSYGIS", "CDR-H2": "VIYSDGRRTEYGDSVK", "CDR-H3": "GQAAGTADS", "mean, log10 nM": "1.59", "seen in": "3 of 3"}
{"CDR-H1": "GFHLNSYGYS", "CDR-H2": "VIYSDGRRTFYGDSVK", "CDR-H3": "GRAAGTFKS", "mean, log10 nM": "nd", "seen in": "0 of 3"}
{"CDR-H1": "GFTLNSYGIE", "CDR-H2": "VIYSDGRRTFRGDSVK", "CDR-H3": "GRWAGTFDS", "mean, log10 nM": "3.38", "seen in": "1 of 3"}
{"CDR-H1": "RFTLNSIGIS", "CDR-H2": "VIYSDGQRTFYGDSVK", "CDR-H3": "GRAAGTFDS", "mean, log10 nM": "5.51", "seen in": "1 of 3"}
{"CDR-H1": "GDTLNSYGIS", "CDR-H2": "QIYSYGRRTFYGDSVK", "CDR-H3": "GRAAGTFDS", "mean, log10 nM": "nd", "seen in": "0 of 3"}
{"CDR-H1": "GFTLNSYGIE", "CDR-H2": "VIYSRGRRTFYGDSVK", "CDR-H3": "GRIAGTFDS", "mean, log10 nM": "nd", "seen in": "0 of 3"}
{"CDR-H1": "GFTLNSYGIS", "CDR-H2": "VIYSDSRRTFYGDSDK", "CDR-H3": "GRAMGTFDS", "mean, log10 nM": "4.43", "seen in": "1 of 3"}
{"CDR-H1": "NETLNSYGIS", "CDR-H2": "VIYSDGRRTFYGDSVK", "CDR-H3": "CRAAGTFDS", "mean, log10 nM": "nd", "seen in": "0 of 3"}
{"CDR-H1": "GFTLNSYGRS", "CDR-H2": "VTYSGGRRTFYGDSVK", "CDR-H3": "GRAAGTFDS", "mean, log10 nM": "2.87", "seen in": "1 of 3"}
{"CDR-H1": "PFTLNSYGIS", "CDR-H2": "VIYSSGRRTFYGDSVK", "CDR-H3": "LRAAGTFDS", "mean, log10 nM": "nd", "seen in": "0 of 3"}
{"CDR-H1": "GFTLNSYGIS", "CDR-H2": "VIYSDGRRTWYGDSVK", "CDR-H3": "GLAAYTFDS", "mean, log10 nM": "nd", "seen in": "0 of 3"}
{"CDR-H1": "GFTLNSYGIS", "CDR-H2": "VIYSDGRRTFYADYVK", "CDR-H3": "GRAAGTFSS", "mean, log10 nM": "2.90", "seen in": "3 of 3"}
{"CDR-H1": "GFTLNSYGIS", "CDR-H2": "VIYSDWRRTFYIDSVK", "CDR-H3": "VRAAGTFDS", "mean, log10 nM": "nd", "seen in": "0 of 3"}
{"CDR-H1": "GFTLNSYGAS", "CDR-H2": "VIYSDGRRTFYKDEVK", "CDR-H3": "GRAAGTFDS", "mean, log10 nM": "nd", "seen in": "0 of 3"}
{"CDR-H1": "GFCLNNYGIS", "CDR-H2": "VIYSDGRRTFYGDSVK", "CDR-H3": "GRAAGTFDS", "mean, log10 nM": "nd", "seen in": "0 of 3"}
{"CDR-H1": "GFTLNSYGIS", "CDR-H2": "SIYSDLRRTFYGDSVK", "CDR-H3": "GRAAGTLDS", "mean, log10 nM": "4.75", "seen in": "1 of 3"}
{"CDR-H1": "GFSLNSYGIS", "CDR-H2": "VIYSDGRRDFKGDSVK", "CDR-H3": "GRAAGTFDS", "mean, log10 nM": "4.11", "seen in": "1 of 3"}
{"CDR-H1": "GFTLNSYGIS", "CDR-H2": "VIYSDGRRTFYYDSVN", "CDR-H3": "GRAAGTFDS", "mean, log10 nM": "nd", "seen in": "0 of 3"}
{"CDR-H1": "GFTWNSYGIS", "CDR-H2": "VNYEDGRRTFYGDSVK", "CDR-H3": "GRAAGTFDS", "mean, log10 nM": "nd", "seen in": "0 of 3"}
{"CDR-H1": "GFTLNSYGIS", "CDR-H2": "VIYSDGRRTQYGDSVK", "CDR-H3": "GRAAGGFLS", "mean, log10 nM": "1.04", "seen in": "3 of 3"}
{"CDR-H1": "GFTLNSYGNS", "CDR-H2": "VIYSDGRATFYGDSAK", "CDR-H3": "GRAAGTFDS", "mean, log10 nM": "nd", "seen in": "0 of 3"}
{"CDR-H1": "GFTLNSYGIS", "CDR-H2": "VIYSWGRRTFYGPSVK", "CDR-H3": "GRAVGTFDS", "mean, log10 nM": "4.72", "seen in": "1 of 3"}

Excerpt, the final 4 entries:

CDR-H1,CDR-H2,CDR-H3,"mean, log10 nM",seen in
GFTWNSYGIS,VNYEDGRRTFYGDSVK,GRAAGTFDS,nd,0 of 3
GFTLNSYGIS,VIYSDGRRTQYGDSVK,GRAAGGFLS,1.04,3 of 3
GFTLNSYGNS,VIYSDGRATFYGDSAK,GRAAGTFDS,nd,0 of 3
GFTLNSYGIS,VIYSWGRRTFYGPSVK,GRAVGTFDS,4.72,1 of 3

Nonspecific signal, from three strains lacking the peptide, appeared in 15% of pairings of library AAYL49, centred on 4.06 (5% of these signals below 2.83); values are not corrected for it. For reference, the parent read 0.65 as the reference entry and 4.11 (one replicate of three) as a member of this library.